The source of these data is ChEMBL document CHEMBL1129379, “Heterocyclic ureas: inhibitors of acyl-CoA:cholesterol O-acyltransferase as hypocholesterolemic agents” (J Med Chem, 1996).

Sequences of proteins named here, by UniProt entry; tags and fusion partners are left off. Residues count along the entry.
UniProt G1SFD9, 1-524: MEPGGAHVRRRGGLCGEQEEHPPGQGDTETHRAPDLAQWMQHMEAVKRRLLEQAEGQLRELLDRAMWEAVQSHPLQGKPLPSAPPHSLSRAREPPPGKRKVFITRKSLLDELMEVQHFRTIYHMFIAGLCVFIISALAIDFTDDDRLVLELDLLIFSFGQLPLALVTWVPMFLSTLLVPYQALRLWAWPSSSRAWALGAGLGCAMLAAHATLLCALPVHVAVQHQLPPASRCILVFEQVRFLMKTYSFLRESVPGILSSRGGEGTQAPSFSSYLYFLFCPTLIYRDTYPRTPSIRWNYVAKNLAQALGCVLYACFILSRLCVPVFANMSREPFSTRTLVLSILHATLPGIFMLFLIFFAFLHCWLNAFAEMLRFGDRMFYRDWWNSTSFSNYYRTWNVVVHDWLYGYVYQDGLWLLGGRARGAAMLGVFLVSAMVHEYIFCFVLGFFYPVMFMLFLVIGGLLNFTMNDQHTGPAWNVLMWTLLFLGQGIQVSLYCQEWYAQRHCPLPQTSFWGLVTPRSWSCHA

Structures are written as SMILES.

This assay addresses O-acyltransferase (Oryctolagus cuniculus, UniProt G1SFD9). Briefly: Acyl coenzyme A:cholesterol acyltransferase 1 inhibition in vitro measured in rabbit intestinal microsomes. Set-up: species or system Intestine. Put shortly:
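ACAT activity in intestinal microsomes from cholesterol-fed rabbits, measured by incubation with 14C-labeled oleoyl-CoA; IC50 is the micromolar concentration giving 50% inhibition of enzyme activity.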

In the case of `CCCCCCCCCCCCCSc1n[nH]c(NC(=O)Nc2c(C(C)C)cccc2C(C)C)n1`, 390 nM corresponded to half-maximal inhibition (IC50).

With `CCCCCCCCCCCCn1cnnc1NC(=O)Nc1c(C(C)C)cccc1C(C)C`, half-maximal inhibition (IC50) was put at 1500 nM.
